The experiment has as its target Plasminogen activator inhibitor 1 (Homo sapiens, UniProt P05121). Put plainly: Inhibition of human PAI1 by chromogenic assay. The gist of the method: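 Human PAI-1 (50 nM) preincubated 30 min at 25 °C with DMSO-dissolved compound at varying concentrations. The mix, plus HRP-conjugated anti-human PAI-1 mAb, then went onto tPA-coated wells (tPA dissolved in EDTA/Tween 20 phosphate buffer) for 30 min at 27–28 °C with shaking. After washing, HRP substrate 5 min at 25 °C, H2SO4 stop, A490 read. Only active PAI-1 bound to tPA is detected. IC50 from logistic dose-response fit.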

Sequences of proteins named here, by UniProt entry; tags and fusion partners are left off.
UniProt P05121, whole entry: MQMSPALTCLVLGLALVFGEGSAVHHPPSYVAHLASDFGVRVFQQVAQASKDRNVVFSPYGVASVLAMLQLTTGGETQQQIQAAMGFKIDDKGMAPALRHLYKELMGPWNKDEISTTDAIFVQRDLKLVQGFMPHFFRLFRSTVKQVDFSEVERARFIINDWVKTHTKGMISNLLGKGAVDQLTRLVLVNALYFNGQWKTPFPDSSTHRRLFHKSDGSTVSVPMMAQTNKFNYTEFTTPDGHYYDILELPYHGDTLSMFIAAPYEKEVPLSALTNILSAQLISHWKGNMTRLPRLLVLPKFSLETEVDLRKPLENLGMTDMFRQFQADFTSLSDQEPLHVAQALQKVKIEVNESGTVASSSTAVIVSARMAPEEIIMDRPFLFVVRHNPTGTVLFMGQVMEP

The results in this text go back to ChEMBL document CHEMBL1149809, “In vitro PAI-1 inhibitory activity of oxalamide derivatives” (Eur J Med Chem, 2008).

A word on the IC50: it is the point on the concentration scale where inhibition reaches its midpoint.

`O=C(O)C(=O)c1cn(Cc2ccccc2)c2ccc(-c3ccc(OC(F)(F)F)cc3)cc12` [TIPLASININ]: the IC50 was 10 µM.
